The record followed here is publication PMC11482831 (bioRxiv, 2024).

Amino acid sequences for entries named in this document (tags omitted). Residues count along the entry.
UniProt O60896, whole entry, looked up, tested part not stated: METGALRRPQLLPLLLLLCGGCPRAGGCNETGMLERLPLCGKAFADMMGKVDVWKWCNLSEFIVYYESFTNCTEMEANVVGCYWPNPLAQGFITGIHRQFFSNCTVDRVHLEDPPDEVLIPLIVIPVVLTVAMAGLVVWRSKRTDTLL
UniProt O60895, 55-175: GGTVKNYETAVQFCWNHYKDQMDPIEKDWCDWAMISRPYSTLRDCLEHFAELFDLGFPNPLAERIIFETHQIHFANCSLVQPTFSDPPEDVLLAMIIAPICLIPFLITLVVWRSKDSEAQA
UniProt O60894, 24-148: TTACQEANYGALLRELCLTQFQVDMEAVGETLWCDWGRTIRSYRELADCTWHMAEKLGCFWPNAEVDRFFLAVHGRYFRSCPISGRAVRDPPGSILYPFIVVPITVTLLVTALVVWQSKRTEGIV

The target in test [1] is AMY3R on cells (HiBiT-CTR.25–474 : mCitrine-RAMP3.25–148) (human) (UniProt O60896). The test is described as follows: FRET or BRET. For orientation: In BRET a luciferase serves as donor, and the signal depends on an acceptor being close.
Test [2] has as its target AMY3R heterodimer (mCitrine-MBP-CTR.25–474 : mCitrine-MBP-RAMP3.25–148) (human) (UniProt O60896). The test can be described thus: native gel or EMSA.
A further test concerns the target CTR:R2 (AMY2R) (Homo sapiens, UniProt O60895+P30988). To be noted: 50 μM SUMO-miniGs, agonist titration.
Another test addresses T1, CTR (Homo sapiens, UniProt P30988).
T1 sequence (P30988 25-474): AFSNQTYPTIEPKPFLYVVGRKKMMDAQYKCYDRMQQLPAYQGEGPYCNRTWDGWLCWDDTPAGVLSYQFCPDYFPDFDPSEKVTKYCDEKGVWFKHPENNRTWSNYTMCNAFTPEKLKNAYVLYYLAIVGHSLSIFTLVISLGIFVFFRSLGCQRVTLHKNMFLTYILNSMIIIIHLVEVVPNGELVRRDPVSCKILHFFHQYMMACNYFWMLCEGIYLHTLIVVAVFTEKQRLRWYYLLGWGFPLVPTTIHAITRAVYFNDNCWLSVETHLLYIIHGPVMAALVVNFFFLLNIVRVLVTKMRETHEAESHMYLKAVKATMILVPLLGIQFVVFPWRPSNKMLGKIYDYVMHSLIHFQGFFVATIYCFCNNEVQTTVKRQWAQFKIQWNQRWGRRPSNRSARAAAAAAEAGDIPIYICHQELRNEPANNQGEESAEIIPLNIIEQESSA
To be noted: 50 μM SUMO-miniGs, agonist titration.

Another test addresses CTR:R1 (AMY1R) (Homo sapiens, UniProt O60894+P30988). The test is described as follows: Native PAGE agonist titration with excess SUMO-miniGs, AMY1R. The conditions noted are these: 50 μM SUMO-miniGs.

In test [1], salmon calcitonin (peptide) gave an EC50 of 22 nM. Further, the pEC50 of the change of the free RAMP3 band (agonist-promoted AMY3R dissociation) in test [2] was 7.21.

With salmon calcitonin [sCT], the “Relative potency, quaternary complex formation” value on CTR:R2 (AMY2R) is “more potent than αCGRP”; on CTR:R1 (AMY1R), “more potent than αCGRP and hCT”. Moreover, on CTR, the “Relative potency, ternary complex formation” value is “more potent than hCT and the other ligands”.

As a reminder, the EC50 is the concentration that produces a half-maximal response.
